We go through 26 compounds from article PMC11363342 (ACS Central Science, 2024).

Values joined by “and” are separate entries in the source; they are usually repeats but may differ in a detail not shown here. Equal entries are not always repeated. Where two headings read alike, the source gives them in different places.

The target of assay [1] is T1, endoplasmic reticulum α-glucosidase II (ER α-Glu II, GANAB) (Homo sapiens, UniProt Q14697).
T1 sequence (Q14697 29-944): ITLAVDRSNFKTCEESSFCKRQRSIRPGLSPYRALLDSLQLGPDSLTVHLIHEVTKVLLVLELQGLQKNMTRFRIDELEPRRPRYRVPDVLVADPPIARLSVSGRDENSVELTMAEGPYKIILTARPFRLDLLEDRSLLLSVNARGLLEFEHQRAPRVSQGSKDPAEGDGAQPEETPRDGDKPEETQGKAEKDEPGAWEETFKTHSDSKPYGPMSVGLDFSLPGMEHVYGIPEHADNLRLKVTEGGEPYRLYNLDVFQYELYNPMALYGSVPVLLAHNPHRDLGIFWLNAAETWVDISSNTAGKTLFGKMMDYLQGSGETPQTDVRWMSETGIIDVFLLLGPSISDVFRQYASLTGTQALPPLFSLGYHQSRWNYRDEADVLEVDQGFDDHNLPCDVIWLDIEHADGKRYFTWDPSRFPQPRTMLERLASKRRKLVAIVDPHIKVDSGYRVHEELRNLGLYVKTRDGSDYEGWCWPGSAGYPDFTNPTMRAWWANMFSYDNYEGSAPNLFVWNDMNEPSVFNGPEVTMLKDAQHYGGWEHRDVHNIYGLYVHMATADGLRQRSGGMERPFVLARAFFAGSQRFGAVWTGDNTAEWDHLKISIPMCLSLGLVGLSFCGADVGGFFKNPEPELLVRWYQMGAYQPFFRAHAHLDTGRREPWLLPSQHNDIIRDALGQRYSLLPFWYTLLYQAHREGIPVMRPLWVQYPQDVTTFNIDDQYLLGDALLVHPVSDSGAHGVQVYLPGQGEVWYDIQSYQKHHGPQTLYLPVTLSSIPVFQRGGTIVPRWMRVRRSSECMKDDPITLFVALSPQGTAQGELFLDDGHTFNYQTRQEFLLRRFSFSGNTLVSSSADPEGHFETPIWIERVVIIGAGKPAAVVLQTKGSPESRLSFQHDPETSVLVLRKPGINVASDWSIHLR
T1 sequence (P14314 15-528 partner): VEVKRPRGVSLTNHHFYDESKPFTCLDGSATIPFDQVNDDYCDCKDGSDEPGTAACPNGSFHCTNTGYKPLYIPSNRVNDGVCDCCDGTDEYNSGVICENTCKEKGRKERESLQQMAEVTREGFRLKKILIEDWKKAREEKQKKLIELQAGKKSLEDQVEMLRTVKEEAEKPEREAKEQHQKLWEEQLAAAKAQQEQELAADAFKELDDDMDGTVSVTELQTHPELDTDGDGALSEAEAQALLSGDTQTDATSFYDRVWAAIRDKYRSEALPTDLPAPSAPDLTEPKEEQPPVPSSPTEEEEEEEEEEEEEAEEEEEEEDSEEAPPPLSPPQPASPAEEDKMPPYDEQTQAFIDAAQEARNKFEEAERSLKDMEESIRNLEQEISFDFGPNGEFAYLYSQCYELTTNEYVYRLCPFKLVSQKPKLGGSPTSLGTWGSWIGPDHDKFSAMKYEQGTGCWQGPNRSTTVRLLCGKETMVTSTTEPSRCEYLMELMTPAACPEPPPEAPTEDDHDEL
Kind of assay: biochemical. Conditions: IC50 GANAB (μM) (ER-Glu-II).

Assay [2] concerns the target recombinant human GAA (Myozyme) (Homo sapiens, UniProt P10253). The note with it: for IC50: IC50 GAA (μM).
Where [3] appears, read: fibroblast cell lysates, pH 7.0, 30 min preincubation at 37 °C, 4-MU-α-Glc.
Setting [4] is: Myozyme, pH 4.0, 30 min preincubation at 37 °C, 4-MU-α-Glc.

Regarding `OC[C@H]1C[C@H]2[C@@H]([C@@H](O)[C@@H]1O)N2CCCCCOCC12CC3CC(CC(C3)C1)C2` (stereo partly drawn) [Compound 27], the IC50 in assay [1] (setting [3]) and in assay [2] (setting [4]) was greater than 100 µM throughout.

Take `CCCC(=O)N1[C@@H]2[C@@H](O)[C@H](O)[C@@H](CO)C[C@@H]21` [Compound 25]: the IC50 in assay [1] (setting [3]) and in assay [2] (setting [4]) was greater than 100 µM throughout.

For the compound `CO[C@H]1[C@H](O)[C@@H](O)[C@H]2OS(=O)(=O)O[C@H]2[C@@H]1CO` [Compound 14], the IC50 in assay [1] (setting [3]) was 8.15 µM and 8.2 µM; in assay [2] (setting [4]), 2.3 µM.

`OC[C@H]1C[C@H]2[C@@H]([C@@H](O)[C@@H]1O)N2CCCCCOCc1cccc2ccccc12` (stereo partly drawn) [Compound 28]: the IC50 in assay [1] (setting [3]) and in assay [2] (setting [4]) was greater than 100 µM each time.

In the case of `O=S1(=O)O[C@@H]2[C@H](O)[C@@H](O)[C@H](O)[C@@H](CO)[C@@H]2O1` [Compound 11, 1,6-epi-cyclophellitol cyclosulfate], the IC50 in assay [1] (setting [3]) turned out to be 0.034 ± 0.004 µM; in assay [2] (setting [4]), 0.038 ± 0.002 µM.

Regarding `OC[C@H]1C[C@H]2[C@@H]([C@@H](O)[C@@H]1O)N2CCCCCOCc1ccc(-c2ccccc2)cc1` (stereo partly drawn) [Compound 24], the IC50 in assay [1] (setting [3]) and in assay [2] (setting [4]) was greater than 100 µM each time.

With `CCCCN1[C@@H]2[C@@H](O)[C@H](O)[C@@H](CO)C[C@@H]21` (stereo partly drawn) [Compound 26], the IC50 in assay [1] (setting [3]) and in assay [2] (setting [4]) was greater than 100 µM each time.

In the case of `O=S1(=O)O[C@@H]2[C@@H](O)[C@H](O)[C@@H](CO)C[C@@H]2O1` [Compound 22], the IC50 in assay [1] (setting [3]) came to 20.3 ± 3.8 µM; in assay [2] (setting [4]), 1.08 µM. In assay [2] (enzyme activity assay), the “GAA inhibition (in words)” value is recorded as “rather potent GAA inhibitor”.

For the compound `OC[C@@H]1[C@@H](O)[C@H](O)[C@@H](O)[C@H]2N[C@@H]12` [Compound 10, 1,6-epi-cyclophellitol aziridine], the IC50 in assay [1] (setting [3]) came to 1.47 ± 1.45 µM; in assay [2] (setting [4]), 0.2 µM.

`OC[C@H]1C[C@H]2[C@@H]([C@@H](O)[C@@H]1O)N2CCCCCOCc1ccc2ccccc2c1` (stereo partly drawn) [Compound 23]: the IC50 in assay [1] (setting [3]) and in assay [2] (setting [4]) was greater than 100 µM in each case.

With `OC[C@@H]1[C@@H](O)[C@H](O)[C@@H](O)CN1CCCCCOCc1cc2ccccc2c2ccccc12` [Compound 3], the IC50 in assay [1] (setting [3]) worked out at 0.15 ± 0.09 µM; in assay [2] (setting [4]), 0.034 ± 0.004 µM.

As to `O=S1(=O)N[C@@H]2[C@H](O)[C@@H](O)[C@H](O)[C@@H](CO)[C@@H]2N1` [Compound 19], the IC50 in assay [1] (setting [3]) and in assay [2] (setting [4]) was greater than 100 µM throughout.

Turning to `COC[C@@H]1[C@@H](O)[C@H](O)[C@@H](O)[C@H]2OS(=O)(=O)O[C@@H]12` [Compound 15], the IC50 in assay [1] (setting [3]) and in assay [2] (setting [4]) was greater than 100 µM in each case.

Turning to `CO[C@@H]1[C@@H](O)[C@H](O)[C@@H](CO)[C@@H]2OS(=O)(=O)O[C@H]12` [Compound 12], the IC50 in assay [1] (setting [3]) and in assay [2] (setting [4]) was greater than 100 µM throughout.

With `OC[C@@H]1[C@@H](O)[C@H](O)[C@@H](O)CN1CCCCCOCc1ccc2ccccc2c1` [Compound 2, naphthyl-deoxynojirimycin], the values for the IC50 in assay [1] (setting [3]) and in assay [2] (setting [4]) were 0.12 ± 0.07 µM and 0.19 ± 0.01 µM, respectively.

Take `CC(C)(C)COCCCCCN1C[C@H](O)[C@@H](O)[C@H](O)[C@H]1CO` [Compound 7]: the IC50 was determined as 2.12 ± 0.38 µM in assay [1] (setting [3]) and 2.19 ± 5.9 µM in assay [2] (setting [4]).

On to `CO[C@H]1[C@H](O)[C@@H](CO)[C@@H]2OS(=O)(=O)O[C@@H]2[C@@H]1O` [Compound 13], for which the IC50 stood at 39.8 µM in assay [1] (setting [3]) and 37.3 µM in assay [2] (setting [4]).

`OC[C@H]1[C@@H](O)[C@H](O)[C@@H](O)CN1CCCCCOCC12CC3CC(CC(C3)C1)C2` [Compound 8] came in with an IC50 in assay [1] of 41.1 µM. The “GAA inhibition (in words)” value in assay [2] is recorded as “no activity”.

Consider `CO[C@H]1[C@H]2OS(=O)(=O)O[C@H]2[C@H](CO)[C@@H](O)[C@@H]1OC` [Compound 16], for which the IC50 in assay [1] (setting [3]) and in assay [2] (setting [4]) was greater than 100 µM in each case.

Take `OC[C@@H]1[C@@H](O)[C@H](O)[C@@H](O)CN1CCCCCOCC12CC3CC(CC(C3)C1)C2` [Compound 5]: the IC50 in assay [1] was 0.21 ± 0.07 µM.

With `OC[C@@H]1[C@@H](O)[C@H](O)[C@@H](O)[C@H]2O[C@@H]12` [Compound 9, 1,6-epi-cyclophellitol], in assay [2] (setting [4]), the IC50 worked out at 6.7 ± 0.34 µM.

`OC[C@@H]1[C@@H](O)[C@H](O)[C@@H](O)CN1CCCCCOCC1CCCO1` (stereo partly drawn) [Compound 4]: the IC50 came out at 0.2 ± 0.05 µM in assay [1] (setting [3]) and 0.82 ± 0.18 µM in assay [2] (setting [4]).

Regarding `OC[C@H]1C[C@@H]2N[C@@H]2[C@@H](O)[C@@H]1O` [Compound 21], the results for the IC50 in assay [1] (setting [3]) and in assay [2] (setting [4]) were 43.8 µM and greater than 100 µM, respectively.

For the compound `CCCCN1C[C@H](O)[C@@H](O)[C@H](O)[C@H]1CO` [Compound 1, N-butyl-DNJ, reference compound], the IC50 in assay [1] came out at 200 µM; in assay [2], 6.58 ± 2.4 µM.

Consider `OC[C@H]1C[C@@H]2O[C@@H]2[C@@H](O)[C@@H]1O` [Compound 20], for which the IC50 in assay [1] (setting [3]) is 11.4 ± 2.3 µM; in assay [2] (setting [4]), 13 µM.

With `O=S1(=O)N[C@@H]2[C@H](O)[C@@H](O)[C@H](O)[C@@H](CO)[C@@H]2O1` [Compound 18], the IC50 is greater than 100 µM in assay [1] (setting [3]); 2.63 µM and 6.1 µM in assay [2] (setting [4]).

As a reminder, the IC50 is the concentration that gives 50% inhibition.
